# Experimental water solubility values from OPERA 2.9

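The OPERA project collected these measurements from public sources as training and test data for property models. One number stands for a compound and property, with no spread given. Method and conditions are not stated for these values. The measured form (salt, isomer or mixture) is not always the one drawn. Some entries may be limits or estimates that an upstream database listed as plain numbers.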

Water solubility is log10 of mol/L, nominally at 25 °C; higher is more soluble.

* Nc1cc(Cl)c(Cl)c(Cl)c1Cl: water solubility -4.53 (log10 mol/L)
* C[Si](C)(C)O[Si](O[Si](C)(C)C)(O[Si](C)(C)C)O[Si](C)(C)C: water solubility -9.407 (log10 mol/L)
* CCOC(N)=O: water solubility 0.85 (log10 mol/L)
* O=C(O)c1cc([N+](=O)[O-])ccc1Cl: water solubility -1.748 (log10 mol/L)
* OC[C@@H](O)[C@@H](O[C@@H]1O[C@H](CO)[C@H](O)[C@H](O)[C@H]1O)[C@H](O)[C@@H](O)CO: water solubility 0.287 (log10 mol/L)
* Nc1ccc(Cl)cc1S(=O)(=O)O: water solubility -1.822 (log10 mol/L)
* CCOC(=O)Nc1ccccc1: water solubility -2.37 (log10 mol/L)
* CC(=O)Nc1ccc(NC(=O)c2cc3ccccc3c(N=Nc3cc(C(N)=O)ccc3Cl)c2O)cc1: water solubility -7.304 (log10 mol/L)
* N#Cc1ccc(C(F)(F)F)cc1[N+](=O)[O-]: water solubility -2.471 (log10 mol/L)
* Cc1cc(N)nc(C)n1: water solubility -1.28 (log10 mol/L)
* Nc1ccc(S(=O)(=O)O)c2ccccc12: water solubility -2.857 (log10 mol/L)
* O=C(O)Cc1c[nH]c2ccc(O)cc12: water solubility -0.901 (log10 mol/L)
* COC(=O)CS(=O)(=O)c1ccc(Br)cc1: water solubility -2.48 (log10 mol/L)
* Clc1ccc(Oc2cc(Cl)c(Cl)c(Cl)c2)cc1Cl: water solubility -8.25 (log10 mol/L)
* O=C1O[C@H]([C@@H](O)CO)C(O)=C1Nc1ccc(S(=O)(=O)c2ccc(NC3=C(O)[C@@H]([C@@H](O)CO)OC3=O)cc2)cc1: water solubility -5.15 (log10 mol/L)
* Clc1ccc(Oc2cc(Cl)c(Cl)cc2Cl)cc1Cl: water solubility -7.83 (log10 mol/L)
* O=S(=O)(O)c1cc(Br)cc2cccnc12: water solubility -2.558 (log10 mol/L)
* CCCCCOC(=O)CCC: water solubility -3.421 (log10 mol/L)
* CC(=O)OCCC1CCCCC1: water solubility -4.18 (log10 mol/L)
* Nc1cnc2cncnc2n1: water solubility -2.314 (log10 mol/L)
* CC(=O)NC(N)=O: water solubility -0.9 (log10 mol/L)
* O=C(O)c1cc(-n2nc3ccccc3n2)ccc1O: water solubility -3.009 (log10 mol/L)
* CC(C)C[C@H](NC(=O)[C@H](Cc1ccccc1)NC(=O)c1cnccn1)B(O)O: water solubility -3.859 (log10 mol/L)
* O=C1CNC(=O)N1: water solubility -0.4 (log10 mol/L)
* CN(C)c1ncc2[nH]cnc2n1: water solubility -2.665 (log10 mol/L)
* O=C1c2c(Cl)c(Cl)c(Cl)c(Cl)c2C(=O)C1c1ccc2cccc(N3C(=O)c4c(Cl)c(Cl)c(Cl)c(Cl)c4C3=O)c2n1: water solubility -7.435 (log10 mol/L)
* FC(F)(F)C(Cl)(Cl)Cl: water solubility -4.333 (log10 mol/L)
* CCc1nc(C2CC2)c(C(N)=O)n1Cc1ccc2oc(-c3ccccc3NS(=O)(=O)C(F)(F)F)c(Br)c2c1: water solubility -4.607 (log10 mol/L)
* CCCCCOC(=O)c1ccc(N)cc1: water solubility -3.305 (log10 mol/L)
* COC(=O)Nc1ncnc2nc[nH]c12: water solubility -2.49 (log10 mol/L)
* CC1=CCC(C(C)(C)O)CC1O (centres undefined): water solubility -0.726 (log10 mol/L)
* CCC(=O)CC(=O)C(=O)O: water solubility -0.395 (log10 mol/L)
* O=C(c1ccco1)c1no[n+]([O-])c1C(=O)c1ccco1: water solubility -3.847 (log10 mol/L)
* CC(C)NCC(O)COc1cccc2ccccc12 (centres undefined): water solubility -3.23 (log10 mol/L)
* CCC(CC(CC)C(=O)O)C(=O)O (centres undefined): water solubility -1.09 (log10 mol/L)
* CCC(C)C(=O)OC(C)C (centres undefined): water solubility -2.32 (log10 mol/L)
* O=C(O)Cc1ccc(O)c(O)c1: water solubility -1.624 (log10 mol/L)
* O=c1[nH]c(=O)c2[nH]cnc(=O)c2[nH]1: water solubility -3.911 (log10 mol/L)
* Cc1ccccc1NC(=O)c1cc2ccccc2c(N=Nc2cc(Cl)c(Cl)cc2Cl)c1O: water solubility -7.694 (log10 mol/L)

Repeated from above, the 6 entries with the highest water solubility:

{"smiles": "CCOC(N)=O", "water solubility (log10 mol/L)": "0.85"}
{"smiles": "OC[C@@H](O)[C@@H](O[C@@H]1O[C@H](CO)[C@H](O)[C@H](O)[C@H]1O)[C@H](O)[C@@H](O)CO", "water solubility (log10 mol/L)": "0.287"}
{"smiles": "CCC(=O)CC(=O)C(=O)O", "water solubility (log10 mol/L)": "-0.395"}
{"smiles": "O=C1CNC(=O)N1", "water solubility (log10 mol/L)": "-0.4"}
{"smiles": "CC1=CCC(C(C)(C)O)CC1O", "stereo": "centres undefined", "water solubility (log10 mol/L)": "-0.726"}
{"smiles": "CC(=O)NC(N)=O", "water solubility (log10 mol/L)": "-0.9"}

From the experimental data distributed with OPERA 2.9.